# Biological target: OP-inhibited hBChE (Homo sapiens, UniProt P06276, N45Q/N483Q/N509Q/N514Q)
# Sequences of proteins named here, by UniProt entry; tags and fusion partners are left off. Residues count along the entry.
# UniProt P06276, 29-557 N45Q/N483Q/N509Q/N514Q limits assumed: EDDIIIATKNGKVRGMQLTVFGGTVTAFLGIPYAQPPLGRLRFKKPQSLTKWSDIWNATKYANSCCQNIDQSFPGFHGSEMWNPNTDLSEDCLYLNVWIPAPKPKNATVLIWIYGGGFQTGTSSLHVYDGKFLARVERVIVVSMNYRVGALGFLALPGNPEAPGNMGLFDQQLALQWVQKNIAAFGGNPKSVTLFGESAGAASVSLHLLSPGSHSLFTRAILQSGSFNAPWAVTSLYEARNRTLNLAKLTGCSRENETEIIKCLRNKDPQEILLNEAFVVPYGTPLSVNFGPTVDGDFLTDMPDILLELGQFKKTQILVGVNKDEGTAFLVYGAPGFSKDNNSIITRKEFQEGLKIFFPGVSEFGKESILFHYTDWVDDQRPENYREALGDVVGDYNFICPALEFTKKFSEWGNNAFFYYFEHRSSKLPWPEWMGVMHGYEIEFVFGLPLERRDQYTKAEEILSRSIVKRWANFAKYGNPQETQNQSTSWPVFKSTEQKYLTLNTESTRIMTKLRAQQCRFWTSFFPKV
# Experiment: Oxime reactivation of OP-inhibited hBChE (modified Ellman assay, BTCh)
# [1] = Paraoxon-inhibited hBChE, Table 1
# [2] = Paraoxon-inhibited hBChE, Table 5
molecule,measurement,setting,value
HI-6,kr,"POX-inhibited hBChE, Table 7",0 min⁻¹
same,kr2,"POX-inhibited hBChE, Table 7",0 M⁻¹ s⁻¹
same,KD,[1],∅
same,Kr,[1],∅
same,Kr2,[1],∅
same,kr,[2],0 min⁻¹
same,kr2,[2],0 M⁻¹ s⁻¹
same,Kd,"Sarin-inhibited hBChE, Table 1",409 µM
same,Kr,"Sarin-inhibited hBChE, Table 1",0.3 ± 0.02 min⁻¹
same,Kr2,"Sarin-inhibited hBChE, Table 1",12 M⁻¹ s⁻¹
same,Kd,"Sarin-inhibited hBChE, Table 5",409 µM
same,kr,"Sarin-inhibited hBChE, Table 5",0.3 ± 0.02 min⁻¹
same,kr2,"Sarin-inhibited hBChE, Table 5",13 M⁻¹ s⁻¹
same,Kd,"Sarin-inhibited hBChE, Table 7",409 µM
same,kr,"Sarin-inhibited hBChE, Table 7",0.3 ± 0.02 min⁻¹
same,kr2,"Sarin-inhibited hBChE, Table 7",13 M⁻¹ s⁻¹
same,Kd,"VX-inhibited hBChE, Table 1",307 µM
same,Kr,"VX-inhibited hBChE, Table 1",0.03 ± 0.002 min⁻¹
same,Kr2,"VX-inhibited hBChE, Table 1",1.7 M⁻¹ s⁻¹
same,Kd,"VX-inhibited hBChE, Table 5",307 µM
same,kr,"VX-inhibited hBChE, Table 5",0.03 ± 0.002 min⁻¹
same,kr2,"VX-inhibited hBChE, Table 5",1.7 M⁻¹ s⁻¹
same,Kd,"VX-inhibited hBChE, Table 7",307 µM
same,kr,"VX-inhibited hBChE, Table 7",0.03 ± 0.002 min⁻¹
same,kr2,"VX-inhibited hBChE, Table 7",1.7 M⁻¹ s⁻¹
O/N=C/c1nc(CCCCC[N+]23CCC(CC2)CC3)ccc1O,Kd,"VX-inhibited hBChE, Table 7",23 µM
same,kr,"VX-inhibited hBChE, Table 7",0.2 ± 0.01 min⁻¹
same,kr2,"VX-inhibited hBChE, Table 7",167 M⁻¹ s⁻¹

# Reference: patent US20230270750A1, “CARBALDEHYDE OXIMES AS BUTYRYLCHOLINESTERASE REACTIVATORS” (published 2023)
